# Assays:
# The chains behind the UniProt entries cited, without tags or fusion partners. Residues count along the entry.
# UniProt Q00959, 23-1464 V529I: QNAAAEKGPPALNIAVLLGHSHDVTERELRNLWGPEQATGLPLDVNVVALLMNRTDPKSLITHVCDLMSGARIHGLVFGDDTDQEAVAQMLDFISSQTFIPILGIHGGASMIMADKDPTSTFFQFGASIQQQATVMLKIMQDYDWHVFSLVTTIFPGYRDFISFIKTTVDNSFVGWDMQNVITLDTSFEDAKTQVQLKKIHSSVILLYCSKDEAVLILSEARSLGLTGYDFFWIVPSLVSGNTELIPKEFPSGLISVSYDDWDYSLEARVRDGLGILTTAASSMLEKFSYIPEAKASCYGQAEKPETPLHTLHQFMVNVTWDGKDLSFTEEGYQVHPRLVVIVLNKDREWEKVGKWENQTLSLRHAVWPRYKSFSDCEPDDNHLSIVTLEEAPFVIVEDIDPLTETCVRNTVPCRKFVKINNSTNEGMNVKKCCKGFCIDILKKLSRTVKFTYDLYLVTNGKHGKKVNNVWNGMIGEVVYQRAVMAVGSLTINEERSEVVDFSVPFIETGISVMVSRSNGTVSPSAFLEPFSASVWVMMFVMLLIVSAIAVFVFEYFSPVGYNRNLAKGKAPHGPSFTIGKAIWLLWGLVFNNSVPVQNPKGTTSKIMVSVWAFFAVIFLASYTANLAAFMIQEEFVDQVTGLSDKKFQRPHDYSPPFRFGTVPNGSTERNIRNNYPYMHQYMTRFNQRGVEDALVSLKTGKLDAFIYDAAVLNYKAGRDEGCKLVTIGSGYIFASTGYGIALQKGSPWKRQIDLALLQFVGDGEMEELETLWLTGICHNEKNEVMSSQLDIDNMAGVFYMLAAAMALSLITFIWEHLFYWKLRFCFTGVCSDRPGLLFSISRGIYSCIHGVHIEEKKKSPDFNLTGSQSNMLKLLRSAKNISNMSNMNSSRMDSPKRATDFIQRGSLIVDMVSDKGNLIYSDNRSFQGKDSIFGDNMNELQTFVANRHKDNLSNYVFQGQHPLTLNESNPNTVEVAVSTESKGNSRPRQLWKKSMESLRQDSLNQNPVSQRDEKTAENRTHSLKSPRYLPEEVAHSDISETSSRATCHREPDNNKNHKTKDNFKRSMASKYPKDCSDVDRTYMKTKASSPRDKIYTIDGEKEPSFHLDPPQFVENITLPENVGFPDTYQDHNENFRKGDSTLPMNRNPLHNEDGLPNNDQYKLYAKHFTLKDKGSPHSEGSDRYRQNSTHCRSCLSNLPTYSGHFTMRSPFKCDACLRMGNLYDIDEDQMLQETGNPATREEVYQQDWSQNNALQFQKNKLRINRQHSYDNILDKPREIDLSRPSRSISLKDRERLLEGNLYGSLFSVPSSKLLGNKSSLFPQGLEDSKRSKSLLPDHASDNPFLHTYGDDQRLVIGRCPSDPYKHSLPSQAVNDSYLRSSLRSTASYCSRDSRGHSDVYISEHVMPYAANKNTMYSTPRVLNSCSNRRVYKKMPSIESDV
# UniProt Q00959, 23-1464 V783L: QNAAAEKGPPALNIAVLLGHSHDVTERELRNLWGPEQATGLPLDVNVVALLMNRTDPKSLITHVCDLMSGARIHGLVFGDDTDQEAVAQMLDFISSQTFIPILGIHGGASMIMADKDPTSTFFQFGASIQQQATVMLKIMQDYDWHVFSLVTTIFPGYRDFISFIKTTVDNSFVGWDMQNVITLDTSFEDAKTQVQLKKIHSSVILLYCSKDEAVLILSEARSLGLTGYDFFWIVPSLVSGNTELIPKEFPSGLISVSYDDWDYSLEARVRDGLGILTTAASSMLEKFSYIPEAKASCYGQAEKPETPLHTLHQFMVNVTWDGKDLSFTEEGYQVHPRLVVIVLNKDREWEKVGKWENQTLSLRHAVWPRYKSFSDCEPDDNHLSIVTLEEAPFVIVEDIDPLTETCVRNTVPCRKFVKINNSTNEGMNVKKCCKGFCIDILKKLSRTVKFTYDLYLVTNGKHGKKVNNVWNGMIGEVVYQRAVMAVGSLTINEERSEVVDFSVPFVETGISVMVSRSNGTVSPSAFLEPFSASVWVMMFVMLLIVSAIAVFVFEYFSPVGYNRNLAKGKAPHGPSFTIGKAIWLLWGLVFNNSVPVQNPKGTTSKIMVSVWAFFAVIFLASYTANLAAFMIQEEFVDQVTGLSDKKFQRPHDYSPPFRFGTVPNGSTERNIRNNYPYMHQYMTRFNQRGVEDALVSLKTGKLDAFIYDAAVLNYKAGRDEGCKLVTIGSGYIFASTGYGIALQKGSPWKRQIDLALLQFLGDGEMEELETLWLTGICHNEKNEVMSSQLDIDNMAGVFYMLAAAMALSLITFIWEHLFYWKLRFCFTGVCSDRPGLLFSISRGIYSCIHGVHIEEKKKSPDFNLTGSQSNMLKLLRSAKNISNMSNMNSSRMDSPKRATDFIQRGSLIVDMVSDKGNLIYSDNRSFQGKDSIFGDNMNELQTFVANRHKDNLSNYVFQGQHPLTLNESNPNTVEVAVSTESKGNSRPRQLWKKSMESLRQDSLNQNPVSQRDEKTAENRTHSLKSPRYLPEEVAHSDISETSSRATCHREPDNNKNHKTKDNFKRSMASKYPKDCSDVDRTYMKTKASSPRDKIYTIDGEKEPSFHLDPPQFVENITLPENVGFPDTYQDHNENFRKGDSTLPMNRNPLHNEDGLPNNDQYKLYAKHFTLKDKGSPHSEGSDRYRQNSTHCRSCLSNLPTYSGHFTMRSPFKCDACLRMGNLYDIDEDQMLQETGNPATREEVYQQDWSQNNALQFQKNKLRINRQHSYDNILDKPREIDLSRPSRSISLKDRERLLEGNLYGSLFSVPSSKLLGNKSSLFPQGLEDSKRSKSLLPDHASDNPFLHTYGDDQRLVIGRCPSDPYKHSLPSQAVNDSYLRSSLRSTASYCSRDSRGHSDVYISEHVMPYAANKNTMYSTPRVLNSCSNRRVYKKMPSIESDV
# UniProt Q00959, 23-1464 I755V: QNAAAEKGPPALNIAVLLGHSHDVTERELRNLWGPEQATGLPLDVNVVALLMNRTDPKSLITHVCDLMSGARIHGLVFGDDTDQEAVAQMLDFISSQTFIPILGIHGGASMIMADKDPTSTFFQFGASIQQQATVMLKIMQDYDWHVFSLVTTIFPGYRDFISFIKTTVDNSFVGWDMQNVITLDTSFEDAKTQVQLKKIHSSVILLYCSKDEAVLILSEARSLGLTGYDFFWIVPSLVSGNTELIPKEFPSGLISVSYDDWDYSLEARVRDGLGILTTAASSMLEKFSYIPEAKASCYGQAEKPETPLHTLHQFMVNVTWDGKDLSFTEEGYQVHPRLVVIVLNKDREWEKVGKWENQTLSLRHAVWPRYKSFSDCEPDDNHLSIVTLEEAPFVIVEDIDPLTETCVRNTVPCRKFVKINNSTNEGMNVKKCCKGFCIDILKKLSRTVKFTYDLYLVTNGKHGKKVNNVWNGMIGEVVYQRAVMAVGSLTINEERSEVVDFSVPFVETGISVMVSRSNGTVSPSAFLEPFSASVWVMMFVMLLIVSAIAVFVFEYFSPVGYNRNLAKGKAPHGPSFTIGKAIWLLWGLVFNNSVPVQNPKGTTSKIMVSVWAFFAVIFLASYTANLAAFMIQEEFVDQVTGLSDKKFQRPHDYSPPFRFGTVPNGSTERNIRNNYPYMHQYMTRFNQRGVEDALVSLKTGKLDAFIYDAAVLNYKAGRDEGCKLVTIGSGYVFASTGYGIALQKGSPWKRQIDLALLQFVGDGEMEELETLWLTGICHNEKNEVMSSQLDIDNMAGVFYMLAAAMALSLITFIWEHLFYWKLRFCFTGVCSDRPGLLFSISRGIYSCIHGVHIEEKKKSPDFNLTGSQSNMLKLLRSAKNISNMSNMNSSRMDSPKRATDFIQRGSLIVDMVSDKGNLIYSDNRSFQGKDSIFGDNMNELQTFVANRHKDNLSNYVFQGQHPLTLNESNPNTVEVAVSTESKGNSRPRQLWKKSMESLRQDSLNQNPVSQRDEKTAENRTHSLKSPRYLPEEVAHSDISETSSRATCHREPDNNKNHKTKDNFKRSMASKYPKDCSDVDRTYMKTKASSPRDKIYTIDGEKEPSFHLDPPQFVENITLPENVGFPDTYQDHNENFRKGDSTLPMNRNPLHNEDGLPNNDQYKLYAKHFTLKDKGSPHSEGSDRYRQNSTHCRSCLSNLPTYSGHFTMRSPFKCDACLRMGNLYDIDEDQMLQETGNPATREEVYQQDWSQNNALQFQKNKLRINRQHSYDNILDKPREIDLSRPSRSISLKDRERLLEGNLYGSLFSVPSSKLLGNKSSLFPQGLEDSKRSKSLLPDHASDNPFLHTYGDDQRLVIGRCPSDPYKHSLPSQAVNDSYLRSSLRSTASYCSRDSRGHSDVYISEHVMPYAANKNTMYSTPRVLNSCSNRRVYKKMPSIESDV
# UniProt Q00959, 23-1464 M788I: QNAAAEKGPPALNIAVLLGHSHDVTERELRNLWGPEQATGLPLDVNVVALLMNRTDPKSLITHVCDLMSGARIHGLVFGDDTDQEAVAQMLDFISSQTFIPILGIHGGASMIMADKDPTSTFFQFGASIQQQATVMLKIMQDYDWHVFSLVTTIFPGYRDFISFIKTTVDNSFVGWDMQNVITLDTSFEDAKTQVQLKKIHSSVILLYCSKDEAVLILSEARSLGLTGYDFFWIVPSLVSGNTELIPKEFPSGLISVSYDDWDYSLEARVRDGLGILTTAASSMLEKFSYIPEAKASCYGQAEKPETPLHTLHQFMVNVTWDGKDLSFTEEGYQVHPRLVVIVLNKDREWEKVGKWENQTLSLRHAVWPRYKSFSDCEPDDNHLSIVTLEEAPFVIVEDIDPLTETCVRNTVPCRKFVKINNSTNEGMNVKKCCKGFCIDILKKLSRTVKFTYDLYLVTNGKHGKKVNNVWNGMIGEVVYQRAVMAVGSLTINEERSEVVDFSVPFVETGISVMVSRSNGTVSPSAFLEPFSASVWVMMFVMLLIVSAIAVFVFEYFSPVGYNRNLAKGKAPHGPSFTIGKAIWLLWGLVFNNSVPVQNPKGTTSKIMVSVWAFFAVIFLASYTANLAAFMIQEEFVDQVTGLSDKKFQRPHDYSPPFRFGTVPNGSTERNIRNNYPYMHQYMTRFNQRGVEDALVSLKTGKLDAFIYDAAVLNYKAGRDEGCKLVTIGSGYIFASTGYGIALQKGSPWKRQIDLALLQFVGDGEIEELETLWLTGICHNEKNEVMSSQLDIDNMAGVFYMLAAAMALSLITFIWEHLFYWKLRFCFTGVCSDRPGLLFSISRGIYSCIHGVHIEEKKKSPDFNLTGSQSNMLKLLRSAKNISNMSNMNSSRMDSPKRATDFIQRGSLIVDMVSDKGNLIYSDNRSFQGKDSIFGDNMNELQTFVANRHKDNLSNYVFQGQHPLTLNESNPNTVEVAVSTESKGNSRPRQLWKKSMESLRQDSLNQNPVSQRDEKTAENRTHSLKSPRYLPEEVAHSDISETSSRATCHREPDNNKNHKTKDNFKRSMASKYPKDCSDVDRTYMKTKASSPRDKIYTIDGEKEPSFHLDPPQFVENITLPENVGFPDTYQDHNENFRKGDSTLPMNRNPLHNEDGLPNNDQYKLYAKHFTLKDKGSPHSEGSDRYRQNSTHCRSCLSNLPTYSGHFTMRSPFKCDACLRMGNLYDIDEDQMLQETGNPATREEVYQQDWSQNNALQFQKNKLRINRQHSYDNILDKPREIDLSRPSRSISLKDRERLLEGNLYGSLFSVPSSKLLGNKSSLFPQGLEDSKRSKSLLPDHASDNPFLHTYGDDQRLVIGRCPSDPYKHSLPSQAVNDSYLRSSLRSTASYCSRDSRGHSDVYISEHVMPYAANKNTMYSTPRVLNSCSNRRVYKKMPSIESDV
# [1] = target: GluN1/2A-V529I (Rattus norvegicus, UniProt P35439+Q00959, V529I); assay: Two-electrode voltage-clamp recordings, mutant GluN1/2A-V529I; type: cell-based; conditions: 300 μM glutamate
# [2] = target: GluN1/2B receptors (Rattus norvegicus, UniProt P35439+Q00960); conditions: 300 μM glutamate; ref Zhao et al. (2022); cited from earlier work
# [3] = target: GluN1/2C receptors (Rattus norvegicus, UniProt P35439+Q00961); conditions: 300 μM glutamate; ref Zhao et al. (2022); cited from earlier work
# [4] = target: GluN1/2A-V783L (Rattus norvegicus, UniProt P35439+Q00959, V783L); assay: Two-electrode voltage-clamp recordings, mutant GluN1/2A-V783L; type: cell-based; conditions: 300 μM glutamate
# [5] = target: GluN1/2A-I755V (Rattus norvegicus, UniProt P35439+Q00959, I755V); assay: Two-electrode voltage-clamp recordings, mutant GluN1/2A-I755V; type: cell-based; conditions: 300 μM glutamate
# [6] = target: GluN1/2A-M788I (Rattus norvegicus, UniProt P35439+Q00959, M788I); assay: Two-electrode voltage-clamp recordings, mutant GluN1/2A-M788I; type: cell-based; conditions: 300 μM glutamate
# [7] = target: GluN1/2A-E789Q (Rattus norvegicus, UniProt P35439+Q00959, E789Q); assay: Two-electrode voltage-clamp recordings, mutant GluN1/2A-E789Q; type: cell-based; conditions: 300 μM glutamate
# [8] = target: GluN1/2A-I755V+Y754K (Rattus norvegicus, UniProt P35439+Q00959, I755V/Y754K); assay: Two-electrode voltage-clamp recordings, mutant GluN1/2A-I755V+Y754K; type: cell-based; conditions: 300 μM glutamate
# [9] = target: GluN1/2A-Y754K (Rattus norvegicus, UniProt P35439+Q00959, Y754K); assay: Two-electrode voltage-clamp recordings, mutant GluN1/2A-Y754K; type: cell-based; conditions: 300 μM glutamate
# [10] = target: GluN1/2A receptors (Rattus norvegicus, UniProt P35439+Q00959); conditions: 300 μM glutamate; ref Lotti et al. (2025); cited from earlier work
# [11] = target: GluN1/2A-T797S (Rattus norvegicus, UniProt P35439+Q00959, T797S); assay: Two-electrode voltage-clamp recordings, mutant GluN1/2A-T797S; type: cell-based; conditions: 300 μM glutamate
# [12] = target: GluN1/2A-M788T (Rattus norvegicus, UniProt P35439+Q00959, M788T); assay: Two-electrode voltage-clamp recordings, mutant GluN1/2A-M788T; type: cell-based; conditions: 300 μM glutamate
# [13] = target: GluN1-Y535A/2A (Rattus norvegicus, UniProt P35439+Q00959, Y535A); assay: Two-electrode voltage-clamp recordings, mutant GluN1-Y535A/2A; type: cell-based; conditions: 300 μM glutamate
# [14] = target: GluN1/2A-V783F (Rattus norvegicus, UniProt P35439+Q00959, V783F); assay: Two-electrode voltage-clamp recordings, mutant GluN1/2A-V783F; type: cell-based; conditions: 300 μM glutamate
# [15] = target: GluN1/2D receptors (Rattus norvegicus, UniProt P35439+Q62645); conditions: 300 μM glutamate; ref Zhao et al. (2022); cited from earlier work
# [16] = target: GluN1/2A-I755F (Rattus norvegicus, UniProt P35439+Q00959, I755F); assay: Two-electrode voltage-clamp recordings, mutant GluN1/2A-I755F; type: cell-based; conditions: 300 μM glutamate
# [17] = target: GluN1-R755A/2A (Rattus norvegicus, UniProt P35439+Q00959, R755A); assay: Two-electrode voltage-clamp recordings, mutant GluN1-R755A/2A; type: cell-based; conditions: 300 μM glutamate
smiles,measurement,setting,value
NCC(=O)O [Glycine],Hill slope nH of glycine activation,[1],1.5
same,Hill slope nH of glycine activation,[2],1.8
same,Hill slope nH of glycine activation,[3],1.6
same,Hill slope nH of glycine activation,[4],1.7
same,Hill slope nH of glycine activation,[5],1.6
same,Hill slope nH of glycine activation,[6],1.7
same,Hill slope nH of glycine activation,[7],1.6
same,Hill slope nH of glycine activation,[8],1.7
same,Hill slope nH of glycine activation,[9],1.6
same,Hill slope nH of glycine activation,[10],1.6
same,Hill slope nH of glycine activation,[11],1.5
same,Hill slope nH of glycine activation,[12],1.7
same,Hill slope nH of glycine activation,[13],1.5
same,Hill slope nH of glycine activation,[14],1.8
same,Hill slope nH of glycine activation,[15],1.3
same,Hill slope nH of glycine activation,[16],1.9
same,Hill slope nH of glycine activation,[17],1.9

# From PMC12772459 (The Journal of general physiology, 2025)
